Experimental data reported in patent publication US7846747B2, “Biocatalytic solgel microarrays” (Rensselaer Polytechnic Institute, priority 2001, dated 2010).

System: MCF7 breast cancer cells
Conditions: metabolite formed from cyclophosphamide by CYP3A4 in solgel matrices

In the case of 4-hydroxycyclophosphamide, the “toxicity to MCF7 breast cancer cells” value was “toxic”.
